Legend:
[1] = biological target: H278N mutant mouse delta opioid receptor (Mus musculus, UniProt P32300, H278N); assay: ^3H-naltrindole binding, COS-7 cell membranes, H278N mutant; details: read-out: Potencies of Antagonist binding, H278N mutant (Ki values in nM); inhibition of ^3H-naltrindole binding
cloned mouse κ receptor = cloned mouse κ receptor (Mus musculus, UniProt P33534); details: read-out: Binding potencies (Ki-nM) κ RECEPTOR [^3H] U-69, 593; PC12 cell membranes
[2] = biological target: D128N mutant mouse delta opioid receptor (Mus musculus, UniProt P32300, D128N); assay: ^3H-naltrindole binding, COS-7 cell membranes, D128N mutant; details: read-out: Potencies of Antagonist binding, D128N mutant (Ki values in nM); inhibition of ^3H-naltrindole binding
cloned mouse δ receptor = cloned mouse δ receptor (Mus musculus, UniProt P32300); details: read-out: Binding potencies (Ki-nM) δ RECEPTOR [^3H] naltrindole; CHO-DG44 cell membranes
[3] = biological target: wild-type mouse delta opioid receptor (Mus musculus, UniProt P32300); assay: ^3H-naltrindole binding, COS-7 cell membranes, wild-type delta receptor; details: read-out: Potencies of Antagonist binding, Wild-type (Ki values in nM); inhibition of ^3H-naltrindole binding
MOP2 = MOP2 (Mus musculus, UniProt P35377); assay: Binding of opioid radioligands to MOP2 expressed in COS-7 cells
cloned rat μ receptor = cloned rat μ receptor (Rattus norvegicus, UniProt P33535); details: read-out: Binding potencies (Ki-nM) μ RECEPTOR [^3H] DAMGO; COS-7 cell membranes
κ/δ2eloop chimera = assay: Binding to second extracellular loop chimera; details: compared with wild-type receptors

Chains of the proteins cited; added tags and fusions are not shown. Lines headed by an entry give the natural chain unless they say otherwise; changes in a name come on top.
UniProt P32300, whole entry H278N, looked up: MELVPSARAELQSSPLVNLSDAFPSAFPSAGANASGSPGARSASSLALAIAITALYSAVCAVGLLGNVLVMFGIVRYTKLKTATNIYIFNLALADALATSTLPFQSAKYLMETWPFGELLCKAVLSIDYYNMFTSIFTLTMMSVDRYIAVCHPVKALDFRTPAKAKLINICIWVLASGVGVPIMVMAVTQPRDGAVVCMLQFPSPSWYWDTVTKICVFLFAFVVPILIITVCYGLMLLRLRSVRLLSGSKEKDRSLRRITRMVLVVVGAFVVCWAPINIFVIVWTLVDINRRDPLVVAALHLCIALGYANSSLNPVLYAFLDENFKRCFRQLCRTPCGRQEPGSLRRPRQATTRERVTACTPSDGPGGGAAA
UniProt P32300, whole entry D128N, looked up: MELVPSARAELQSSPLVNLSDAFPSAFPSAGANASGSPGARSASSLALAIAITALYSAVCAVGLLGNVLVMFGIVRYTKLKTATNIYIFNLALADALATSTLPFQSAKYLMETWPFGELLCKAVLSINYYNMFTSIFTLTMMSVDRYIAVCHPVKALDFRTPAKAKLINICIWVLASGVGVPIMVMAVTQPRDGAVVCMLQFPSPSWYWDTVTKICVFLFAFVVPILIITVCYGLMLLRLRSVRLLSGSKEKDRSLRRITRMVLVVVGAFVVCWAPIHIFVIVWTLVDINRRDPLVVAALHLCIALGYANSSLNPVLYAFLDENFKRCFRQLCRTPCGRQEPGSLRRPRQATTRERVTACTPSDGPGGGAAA
UniProt P32300, whole entry, looked up: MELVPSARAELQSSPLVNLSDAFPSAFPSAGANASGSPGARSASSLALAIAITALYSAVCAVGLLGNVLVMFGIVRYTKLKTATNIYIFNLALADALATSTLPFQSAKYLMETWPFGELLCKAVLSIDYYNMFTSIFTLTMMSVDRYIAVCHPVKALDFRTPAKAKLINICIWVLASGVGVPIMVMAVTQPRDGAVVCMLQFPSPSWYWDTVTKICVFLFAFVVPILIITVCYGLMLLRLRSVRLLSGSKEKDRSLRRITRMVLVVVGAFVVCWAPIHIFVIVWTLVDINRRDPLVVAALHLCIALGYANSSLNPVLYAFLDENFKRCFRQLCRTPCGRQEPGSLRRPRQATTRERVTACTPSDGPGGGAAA
UniProt P33534: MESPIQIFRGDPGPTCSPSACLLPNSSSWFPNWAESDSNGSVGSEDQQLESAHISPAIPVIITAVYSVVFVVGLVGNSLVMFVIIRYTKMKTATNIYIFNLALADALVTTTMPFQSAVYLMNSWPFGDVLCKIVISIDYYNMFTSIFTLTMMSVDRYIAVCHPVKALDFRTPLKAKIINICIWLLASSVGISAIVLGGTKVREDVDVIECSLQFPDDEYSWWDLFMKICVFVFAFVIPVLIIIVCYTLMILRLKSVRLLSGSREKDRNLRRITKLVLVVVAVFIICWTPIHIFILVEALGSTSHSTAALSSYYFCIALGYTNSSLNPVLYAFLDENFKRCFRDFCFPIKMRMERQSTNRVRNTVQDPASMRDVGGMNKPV
UniProt P35377: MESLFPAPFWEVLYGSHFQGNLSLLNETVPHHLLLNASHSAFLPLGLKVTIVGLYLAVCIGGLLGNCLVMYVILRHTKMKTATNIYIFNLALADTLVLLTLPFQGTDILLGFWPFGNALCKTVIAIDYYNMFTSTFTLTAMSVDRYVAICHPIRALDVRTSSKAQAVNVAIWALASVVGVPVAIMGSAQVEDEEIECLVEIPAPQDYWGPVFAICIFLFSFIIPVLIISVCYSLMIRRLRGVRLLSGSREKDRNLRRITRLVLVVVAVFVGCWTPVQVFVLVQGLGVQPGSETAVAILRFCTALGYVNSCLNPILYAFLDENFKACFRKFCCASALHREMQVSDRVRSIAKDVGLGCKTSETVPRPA
UniProt P33535, whole entry, looked up: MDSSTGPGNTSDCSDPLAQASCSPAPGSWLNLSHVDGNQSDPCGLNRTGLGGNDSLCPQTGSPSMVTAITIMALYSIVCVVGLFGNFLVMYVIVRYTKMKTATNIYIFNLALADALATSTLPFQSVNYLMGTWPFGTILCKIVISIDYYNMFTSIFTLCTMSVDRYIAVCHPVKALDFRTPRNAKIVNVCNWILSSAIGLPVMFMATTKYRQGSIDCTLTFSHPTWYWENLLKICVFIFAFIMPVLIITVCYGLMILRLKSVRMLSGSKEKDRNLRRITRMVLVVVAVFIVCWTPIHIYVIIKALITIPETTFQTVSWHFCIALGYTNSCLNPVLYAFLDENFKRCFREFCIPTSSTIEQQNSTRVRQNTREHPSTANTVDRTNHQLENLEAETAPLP

In the case of `CO[C@]12CC[C@@]3(C[C@@H]1C(C)(C)O)[C@H]1Cc4ccc(O)c5c4[C@@]3(CCN1CC1CC1)[C@H]2O5`, the Ki [1] is reported as 1.4 nM, the Ki (cloned mouse κ receptor) is reported as 0.017 nM and the Ki [2] is reported as 16 nM. The Ki (cloned mouse δ receptor) was 0.23 nM, the Ki [3] was 5 nM and the “Specific binding of radioligand to MOP2” value (MOP2) was “did not bind specifically”.
`CN(C(=O)Cc1ccc(Cl)c(Cl)c1)C1CCC2(CCCO2)CC1N1CCCC1` (stereo not shown) showed a Ki (cloned mouse κ receptor) of 0.036 nM, a Ki (cloned mouse δ receptor) greater than 1000 nM and a Ki (cloned rat μ receptor) of 21 nM. For the same compound, the “Binding to the κ/δ2eloop chimera” value (κ/δ2eloop chimera) was “did not bind”.

Reference: US7235366B1, “Methods of identifying agonists and antagonists of opioid receptors” (priority 1993, dated 2007)
